Assay results published in patent US7994190B2, “Modulators of glucocorticoid receptor, AP-1, and/or NF-κB activity and use thereof” (Bristol-Myers Squibb Company, priority 2006, dated 2011).

The chains behind the UniProt entries cited, without tags or fusion partners.
UniProt P04150, whole entry: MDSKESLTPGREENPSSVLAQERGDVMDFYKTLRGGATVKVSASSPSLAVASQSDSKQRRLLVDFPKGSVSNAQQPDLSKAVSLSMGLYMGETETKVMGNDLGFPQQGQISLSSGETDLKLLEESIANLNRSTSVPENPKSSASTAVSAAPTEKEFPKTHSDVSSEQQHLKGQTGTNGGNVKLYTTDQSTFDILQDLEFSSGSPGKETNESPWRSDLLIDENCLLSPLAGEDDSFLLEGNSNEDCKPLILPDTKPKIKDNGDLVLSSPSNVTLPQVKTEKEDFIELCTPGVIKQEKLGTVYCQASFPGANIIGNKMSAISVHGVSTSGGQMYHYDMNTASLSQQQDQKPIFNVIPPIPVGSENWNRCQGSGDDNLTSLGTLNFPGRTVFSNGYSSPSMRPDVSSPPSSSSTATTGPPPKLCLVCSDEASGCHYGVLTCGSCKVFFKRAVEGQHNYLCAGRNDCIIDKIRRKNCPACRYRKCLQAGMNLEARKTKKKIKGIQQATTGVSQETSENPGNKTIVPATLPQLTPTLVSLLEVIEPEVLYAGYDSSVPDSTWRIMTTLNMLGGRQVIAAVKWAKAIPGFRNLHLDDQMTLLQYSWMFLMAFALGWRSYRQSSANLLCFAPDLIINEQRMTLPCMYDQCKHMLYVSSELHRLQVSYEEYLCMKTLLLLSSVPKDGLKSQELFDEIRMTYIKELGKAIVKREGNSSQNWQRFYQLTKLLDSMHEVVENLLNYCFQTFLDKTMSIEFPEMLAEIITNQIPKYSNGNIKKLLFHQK

Molecular target: human glucocorticoid receptor (Homo sapiens, UniProt P04150)
Assay: Glucocorticoid Receptor Binding Assay (fluorescence polarization competitor kit)
Conditions: read-out: GR (Ki, nM) (GR Binding Assay); purified human recombinant full-length GR 2 nM, 1 nM Fluormone GS Red, 2 h room temperature
Procedure: Glucocorticoid Receptor Binding Assay
In order to assess the affinity of test compounds for the human glucocorticoid receptor, a commercially available kit was used (Glucocorticoid Receptor Competitor Assay Kit, Invitrogen Part #2893). Briefly, purified human recombinant full-length glucocorticoid receptor (2 nM) was mixed with fluorescently labeled glucocorticoid (1 nM Fluormone GS Red) in the presence or absence of test compound. After two hour incubation at room temperature in the dark, the fluorescence polarization (FP) of the samples was measured. The FP of a mixture of receptor, fluorescent probe (i.e. Fluormone GS Red) and 5 μM dexamethasone represented background fluorescence or 100% inhibition, whereas, the FP of the mixture without dexamethasone (but in the presence of vehicle) was taken to be 100% binding. The percentage inhibition of test compounds were then compared to the sample with 5 μM dexamethasone and expressed as % relative binding activity, with dexamethasone being 100% and no inhibition being 0%. Test compounds were analyzed in the concentration range from 8.5E-05 μM to 5 μM.

CC(C)(C(=O)Nc1nncs1)C(c1ccccc1)c1ccc2c(-c3ccc(C#N)cc3)ncn2c1 (stereo not shown)
Ki: 20 nM
